# Assay results reported in PubChem BioAssay AID651644 (National Center for Advancing Translational Sciences (NCATS), 2012).
# Out of some 360,000 compounds screened, about 750 (0.21%) were called active. Listed are the inconclusive results; actives and inactives stand elsewhere. Calls follow the shape of the dose curve; as a rule, active = well fitted falling curve with a large enough effect; inconclusive = small, poorly fitted or top-dose-only effect; inactive = no such curve, though single readings can be large or run the other way.
# Experiment: qHTS Assay for Inhibitors of the HIV-1 protein Vpr; also: nearly all actives have a fitted effect of over 50% in size
# Details: S. pombe RE007 Vpr strain, BacTiter-Glo ATP luminescence, 24 h
# Potency is read from the fitted curve at half-maximal effect.
row,SMILES,Potency
1,CN(C)C(=O)c1cc([N+](=O)[O-])cc2c1-c1c(cc([N+](=O)[O-])cc1[N+](=O)[O-])C2=O,inconclusive: 12.6 µM
2,O=[N+]([O-])c1cc([N+](=O)[O-])c(CCNc2ccccc2)c([N+](=O)[O-])c1,inconclusive: 28.2 µM
3,O=P1(Nc2nc3ccc(Cl)cc3s2)COc2ccccc2O1 (centres undefined),inconclusive: 35.5 µM
4,O=c1c2cc([N+](=O)[O-])ccc2[nH]c2c([N+](=O)[O-])cc([N+](=O)[O-])cc12,inconclusive: 10 µM
